Data reported in patent US8933228B2, “Respiratory formulations and compounds for use therein” (Respivert, Ltd., priority 2010, dated 2015).
pIC50: −log10 of the molar value.

Molecular target: HCK enzyme (Homo sapiens (Human), UniProt P08631)
Experiment: HCK enzyme inhibition assay (FRET, Z'-LYTE)
Type: biochemical
Settings: read-out: Enzyme Profile: IC50 Values HCK

pIC50: 8.52
Structure (SMILES): COCC(=O)Nc1cc(Oc2ccc(NC(=O)Nc3cc(C(C)(C)C)nn3-c3ccc(C)cc3)c3ccccc23)ccn1 [Ref 2, N-(4-(4-(3-(3-tert-butyl-1-p-tolyl-1H-pyrazol-5-yl)ureido)naphthalen-1-yloxy)pyridin-2-yl)-2-methoxy acetamide, reference compound]
